The record followed here is BindingDB's records for patent US10821115 (Amgen, 2020).

Protein sequences, listed by entry. Tags and fused reporters are not part of them. Residues count along the entry.
UniProt Q07820, 171-327: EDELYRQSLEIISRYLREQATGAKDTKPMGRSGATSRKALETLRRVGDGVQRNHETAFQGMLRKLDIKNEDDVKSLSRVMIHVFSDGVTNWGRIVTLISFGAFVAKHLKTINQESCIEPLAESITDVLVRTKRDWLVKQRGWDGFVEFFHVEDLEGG

The experiment has as its target T1, Induced myeloid leukemia cell differentiation protein Mcl-1 [171-327] (Homo sapiens, UniProt Q07820).
T1 construct: 171-327
Briefly: Time-Resolved Fluorescence Resonance Energy Transfer (TR-FRET) Assay.

Regarding `COC(=O)[C@H](NC(=O)C[C@]1(OC)/C=C/C[C@H](C)[C@@H](C)S(=O)(=O)NC(=O)c2ccc3c(c2)N(C[C@@H]2CC[C@H]21)C[C@@]1(CCCc2cc(Cl)ccc21)CO3)C(C)=O` [US10821115, Example 100582], the IC50 was 0.197 nM. In other words, the sub-nanomolar range.

In turn, `CO[C@]1(CN2CCN(C(C)C)CC2)/C=C/C[C@H](C)[C@@H](C)S(=O)(=O)NC(=O)c2ccc3c(c2)N(C[C@@H]2CC[C@H]21)C[C@@]1(CCCc2cc(Cl)ccc21)CO3` [US10821115, Example 5] yielded an IC50 of 0.098 nM.
